According to PubChem BioAssay AID2825 (Sanford-Burnham Center for Chemical Genomics, 2010):
The entries are a selection whose mix differs from that of the whole data set. Some salts or complexes appear as unconnected parts, following the source record. Calls of active or inactive are those of the source.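 How the source made its calls: active means inhibition of 50% or more; inactive means inhibition below 50%.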

Experiment: NALP3 inflammasome inhibitors in reconstituted yeast, primary screen, luminescence, uHTS (AID 2825);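 further: plate controls were induced DMSO wells for no effect and uninduced yeast grown without galactose for full effect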
Details: Yeast reconstituted NLRP3/ASC/caspase-1, beta-gal luminescence, 24 h; at 10 µM; stronger effect = higher value

Structure (SMILES) | inhibition
CP(=O)(Nc1ccccc1)Oc1ccc(F)cc1 (stereo unspecified) | inactive: 7.43%
CCCCCOc1ccc(NP(C)(=O)Oc2ccc(Cl)cc2Cl)cc1 (stereo unspecified) | inactive: 26.1%
O=[N+]([O-])c1cc([N+](=O)[O-])c(OC2CCCCC2O)c([N+](=O)[O-])c1 (stereo unspecified) | inactive: 27.7%
CCN(CC)CCCOC(=O)C(O)(c1ccccc1)C1CCCCC1 (stereo unspecified) | inactive: 12.1%
CCOC(=O)c1ccc(NP(C)(=O)Oc2ccc(F)cc2)cc1 (stereo unspecified) | inactive: 11.2%
COc1ccc(OP(C)(=O)Nc2ccc(SC(F)(F)F)cc2)cc1 (stereo unspecified) | inactive: 16.3%
COc1ccc2c(c1O)-c1c(O)c(OC)cc3c1[C@H](C2)[N+](C)(C)CC3.O=[N+]([O-])c1cc([N+](=O)[O-])c([O-])c([N+](=O)[O-])c1[O-] | inactive: 16.2%
O=C(OC1CN2CCC1CC2)c1ccc([N+](=O)[O-])cc1 (stereo unspecified) | inactive: 14.8%
O=C(OCCN1CCN(CCOCc2ccccc2)CC1)C(O)(c1ccccc1)c1ccccc1 | inactive: 24.2%
CP(=O)(Nc1ccccc1F)Oc1ccccc1 (stereo unspecified) | inactive: 17.7%
CC(C)c1ccc(OP(C)(=O)Nc2ccc(SC(F)(F)F)cc2)cc1 (stereo unspecified) | inactive: -0.431%
Cc1ccccc1NP(C)(=O)Nc1ccccc1C | inactive: 6.68%
CP(=O)(Nc1ccc2c(c1)OCCO2)Oc1ccccc1 (stereo unspecified) | inactive: 8.88%
CCOP(C)(=S)SCC(=O)NC(C)(CC)C(=O)O (stereo unspecified) | inactive: 11.9%
CP(=O)(Nc1ccc(SC(F)(F)F)cc1)Oc1ccc(F)cc1 (stereo unspecified) | inactive: 16.8%
O=[N+]([O-])c1cc([N+](=O)[O-])c(NCC2CCS(=O)(=O)C2)c([N+](=O)[O-])c1 (stereo unspecified) | inactive: 21.6%
CN(C)CCOC(=O)C(O)(c1ccccc1)C1CCCCC1 (stereo unspecified) | inactive: 8.37%
COc1ccc(NP(C)(=O)Oc2ccccc2OC)cc1 (stereo unspecified) | inactive: 9.9%
COc1ccc(OP(C)(=O)Nc2cccc(Br)c2)cc1 (stereo unspecified) | inactive: 5.24%
CCOC(=O)c1ccc(NP(C)(=O)Oc2ccc(Cl)cc2)cc1 (stereo unspecified) | inactive: 8.34%
CP(=O)(OC12CC3CC(CC(C3)C1)C2)OC12CC3CC(CC(C3)C1)C2 | inactive: 4.34%
Nc1ccc2c(ccc3cccnc32)n1.O=[N+]([O-])c1cc([N+](=O)[O-])c(O)c([N+](=O)[O-])c1 | inactive: -5.47%

Structure (SMILES) | inhibition
CN(C)C(=O)c1c([N+](=O)[O-])cc([N+](=O)[O-])cc1[N+](=O)[O-] | inactive: 22.4%
CC(C)(C)c1ccc(OP(C)(=O)O)cc1 | inactive: 14.1%
COc1ccccc1OP(C)(=O)Nc1ccccc1Br (stereo unspecified) | inactive: 6%
CP(=O)(Nc1ccc(Cl)cc1)Oc1ccc(F)cc1 (stereo unspecified) | inactive: 24.1%
COc1ccccc1OP(C)(=O)Nc1c(C)n(C)n(-c2ccccc2)c1=O (stereo unspecified) | inactive: 0.724%
O=C(OCCCN1CCCC1)C(O)(c1ccccc1)C1CCCCC1 (stereo unspecified) | inactive: 17.2%
CP(=O)(Oc1ccccc1)N1CCOC1=O (stereo unspecified) | inactive: 9.92%
CCc1ccc(OP(C)(=O)Nc2cccnc2)cc1 (stereo unspecified) | inactive: -2.25%
CCN(CC)CC(O)COC(=O)C(O)(c1ccccc1)C1CCCCC1 (stereo unspecified) | inactive: -21.4%
COc1ccc(OP(C)(=O)Nc2ccc(Br)cc2)cc1 (stereo unspecified) | inactive: 0.773%
CP(=O)(Nc1ccccn1)Oc1ccccc1 (stereo unspecified) | inactive: 1.62%
COc1ccccc1OP(C)(=O)Nc1ccc(C)cc1C (stereo unspecified) | inactive: 15.7%
CCc1ccc(OP(C)(=O)O)cc1 | inactive: 3.17%
O=[N+]([O-])c1cc([N+](=O)[O-])c(Nc2ccccn2)c([N+](=O)[O-])c1 | inactive: 39.8%
Cc1c(NP(C)(=O)Oc2ccc(C(C)C)cc2)c(=O)n(-c2ccccc2)n1C (stereo unspecified) | inactive: 10.5%
COc1ccc(OP(C)(=O)Nc2ccccn2)cc1 (stereo unspecified) | inactive: 8.72%
CN(C)CCOC(=O)C(O)(c1ccccc1)C1CCCC1 (stereo unspecified) | inactive: -3.69%
COc1ccccc1OP(C)(=O)Nc1ccc(Br)cc1 (stereo unspecified) | inactive: -0.614%
CP(=O)(OCCOc1ccccc1)OCCOc1ccccc1 | inactive: 14%
CP(=O)(Nc1ccc(Cl)cc1Cl)Oc1ccccc1 (stereo unspecified) | inactive: 15.7%
Cc1nc2ccc3ccccc3c2o1.O=[N+]([O-])c1cc([N+](=O)[O-])c(O)c([N+](=O)[O-])c1 | inactive: 23.9%
COc1ccccc1OP(C)(=O)Nc1ccc(C)c(C)c1 (stereo unspecified) | inactive: 5.98%

Structure (SMILES) | inhibition
COc1ccc(OP(C)(=O)Nc2ccccc2Br)cc1 (stereo unspecified) | inactive: 1.86%
Cc1cc(C)cc(OP(C)(=O)Nc2cccc(C(F)(F)F)c2)c1 (stereo unspecified) | inactive: 4.84%
Cc1cc(C)cc(OP(C)(N)=O)c1 (stereo unspecified) | inactive: -16.5%
COc1ccccc1OP(C)(=O)Nc1cc(Cl)ccc1C (stereo unspecified) | inactive: 8.05%
COc1ccc(OP(C)(=O)Nc2cccc(F)c2)cc1 (stereo unspecified) | inactive: 6.35%
COc1ccccc1OP(C)(=O)Nc1ccc(C)cc1 (stereo unspecified) | inactive: 0.849%
Cc1ccc(NP(C)(=O)Oc2ccccc2)c(C)c1 (stereo unspecified) | inactive: 23.4%
CCOC(=O)c1ccc(NP(C)(=O)Oc2ccccc2)cc1 (stereo unspecified) | inactive: 10.8%
CC(C)(C)c1ccc(OP(C)(=O)Nc2ccc(SC(F)(F)F)cc2)cc1 (stereo unspecified) | inactive: 4.68%
Cc1cccc(C)c1OP(C)(N)=O (stereo unspecified) | inactive: -5.42%
O=[N+]([O-])c1cc([N+](=O)[O-])c(Nc2cccnc2)c([N+](=O)[O-])c1 | inactive: 22.8%
CCN(CC)CCCOC(=O)C(O)(c1ccccc1)c1ccccc1 | inactive: 8.5%
CP(=O)(Nc1ccccn1)Oc1ccc(Cl)cc1 (stereo unspecified) | inactive: 10.5%
CCOC(=O)c1ccc(NP(C)(=O)Oc2ccc(OC)cc2)cc1 (stereo unspecified) | inactive: 16.3%
O=[N+]([O-])c1cc([N+](=O)[O-])c(O)c([N+](=O)[O-])c1.c1ccc(Oc2ccncc2)cc1 | inactive: 18.7%
CCOP(C)(=S)SCC(=O)NC(C)C(=O)O (stereo unspecified) | inactive: 7.67%
CCc1ccc(OP(C)(=O)N2CCN(c3ccc([N+](=O)[O-])cc3)CC2)cc1 (stereo unspecified) | inactive: 36.9%
CP(=O)(NC(=O)Nc1ccccc1)Oc1ccccc1 (stereo unspecified) | inactive: 7.16%
Cc1cc(C)cc(OP(C)(=O)Nc2ccc(SC(F)(F)F)cc2)c1 (stereo unspecified) | inactive: -1.89%
Cc1cccc(C)c1OP(C)(=O)Nc1ccc(SC(F)(F)F)cc1 (stereo unspecified) | inactive: -0.731%
CP(=O)(Nc1ccc(SC(F)(F)F)cc1)Oc1ccc(Cl)cc1 (stereo unspecified) | inactive: 28.9%
CP(=O)(Oc1ccccc1)OC(c1ccccc1)C(F)(F)F (stereo unspecified) | inactive: 14.7%

Structure (SMILES) | inhibition
CP(=O)(Nc1ccccc1Br)Oc1ccccc1 (stereo unspecified) | inactive: -3.15%
COc1ccccc1OP(C)(=O)Nc1ccccc1 (stereo unspecified) | inactive: 6.92%
CP(=S)(Nn1cnnc1)Oc1ccccc1 (stereo unspecified) | inactive: 4.21%
CP(=O)(Nc1ccc(SC(F)(F)F)cc1)Oc1ccccc1 (stereo unspecified) | inactive: 2.75%
CCCOc1ccc(NP(C)(=O)Oc2ccc(Cl)cc2)cc1 (stereo unspecified) | inactive: 24.4%
COc1ccccc1OP(C)(=O)Nc1c(C)cccc1C (stereo unspecified) | inactive: 7.85%
CN1CCCCC1COC(=O)C1(O)c2ccccc2CCc2ccccc21 (stereo unspecified) | inactive: -6.64%
O=[N+]([O-])c1cc([N+](=O)[O-])c(Nc2nnnn2CCO)c([N+](=O)[O-])c1 | inactive: 15.5%
CC1=C2N=C(C=C3N=C(C(C)=C4[N-][C@@](C)([C@@H]5N=C1[C@](C)(CCC(=O)NC[C@@H](C)OP(=O)([O-])O[C@H]1[C@@H](O)[C@@H](n6cnc7cc(C)c(C)cc76)O[C@@H]1CO)[C@H]5CC(N)=O)[C@@](C)(CC(N)=O)[C@@H]4CCC(N)=O)[C@@](C)(CC(N)=O)[C@@H]3CCC(N)=O)C(C)(C)[C@@H]2CCC(N)=O.[C-]#N.[Co+3] | inactive: 27%
CCOC(=O)C(CC)C1=NC(C)(C)Cc2ccccc21.O=[N+]([O-])c1cc([N+](=O)[O-])c(O)c([N+](=O)[O-])c1 (stereo unspecified) | inactive: 6.63%
Cc1nc2ccc3ccccc3c2s1.O=[N+]([O-])c1cc([N+](=O)[O-])c(O)c([N+](=O)[O-])c1 | inactive: 6.44%
O=[N+]([O-])c1cc([N+](=O)[O-])c(-c2cnn(-c3ccccc3)c2)c([N+](=O)[O-])c1 | inactive: 12.8%
O=[N+]([O-])c1cc([N+](=O)[O-])c(-n2nnc3ccccc32)c([N+](=O)[O-])c1 | inactive: 5.83%
Cc1ccc(C)c(NP(C)(=O)Oc2ccccc2)c1 (stereo unspecified) | inactive: -4.27%
CP(=O)(Nc1cccc(Br)c1)Oc1ccccc1 (stereo unspecified) | inactive: 26%
Cc1cc(C)cc(OP(C)(=O)Nc2ccccn2)c1 (stereo unspecified) | inactive: 12%
CCOC(=O)c1ccc(NP(C)(=O)Oc2cc(C)cc(C)c2)cc1 (stereo unspecified) | inactive: 10.5%
Cc1cc(C)cc(OP(C)(=O)Nc2ccc(C)cc2C)c1 (stereo unspecified) | inactive: 21.6%
COc1ccccc1OP(C)(=O)Nc1cccc(Br)c1 (stereo unspecified) | inactive: 8.18%
O=C(O)c1cccc(Nc2c([N+](=O)[O-])cc([N+](=O)[O-])cc2[N+](=O)[O-])c1 | inactive: 24.7%
